# Data as given in PubChem BioAssay AID1476 (National Center for Advancing Translational Sciences (NCATS), 2009).
# Chains of the proteins cited; added tags and fusions are not shown. Residues count along the entry.
# UniProt P25779, 123-467 limits assumed: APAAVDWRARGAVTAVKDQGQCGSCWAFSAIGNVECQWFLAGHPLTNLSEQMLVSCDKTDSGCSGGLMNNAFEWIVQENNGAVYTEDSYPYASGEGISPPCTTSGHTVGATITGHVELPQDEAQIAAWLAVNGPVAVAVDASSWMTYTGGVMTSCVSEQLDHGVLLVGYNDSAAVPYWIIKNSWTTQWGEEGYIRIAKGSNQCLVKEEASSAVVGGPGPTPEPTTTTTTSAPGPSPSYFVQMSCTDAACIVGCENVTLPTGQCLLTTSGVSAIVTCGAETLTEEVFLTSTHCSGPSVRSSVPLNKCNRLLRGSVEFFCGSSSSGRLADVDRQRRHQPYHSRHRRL
# The entries are a selection whose mix differs from that of the whole data set. Some tests of the compounds listed are not included; inactive here does not mean inactive elsewhere. Records with an inconclusive call do not appear. Activity calls are given as the source filed them. Calls follow the shape of the dose curve; as a rule, active = well fitted inhibition curve with a large enough effect; inconclusive = small, poorly fitted or top-dose-only effect, or effect the other way; inactive = flat fitted curve, though single readings scatter.
# Target: Cruzipain (Trypanosoma cruzi) (UniProt P25779)
# Test: qHTS Assay for Promiscuous and Specific Inhibitors of Cruzain (without detergent);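 also: plate controls were enzyme without inhibitor for no effect and buffer without enzyme for full effect; nearly all actives have a fitted effect of over 40% in size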
# Details: purified cruzain, Z-FR-AMC fluorescence, no detergent
row,Structure (SMILES),"max response, negative = inhibition"
1,CN(C)C1(CNC(=O)c2cccc(Cl)c2)CCCCC1,inactive: 0.741%
2,CC(C)N1C(=O)CC2(CCN(CCOC(=O)C(O)(c3ccccc3)c3ccccc3)CC2)C1=O,inactive: -3.6%
3,CN(C)C1(CNC(=O)c2ccccc2F)CCCCC1,inactive: 0.892%
4,CCOc1cccc(C(=O)NCC2(N(C)C)CCCCC2)c1,inactive: -7.41%
5,CCN1CCCC(OC(=O)C2(O)c3ccccc3C=Cc3ccccc32)C1 (centres undefined),inactive: 3.24%
6,CN(C)C1(CNC(=O)c2ccccc2[N+](=O)[O-])CCCCC1,inactive: -15.4%
7,CN(C)C1CCCC1OC(=O)C(O)(c1ccccc1)c1ccccc1 (centres undefined),inactive: 4.12%
8,CCCCOc1ccccc1C(=O)NCC1(N(C)C)CCCCC1,inactive: -14.1%
9,COc1ccc(C(=O)NCC2(N(C)C)CCCCC2)cc1Cl,inactive: -2.03%
10,Cc1cccc(C(=O)NCC2(N(C)C)CCCCC2)c1,inactive: -3.08%
11,COc1cc(C(=O)NCC2(N(C)C)CCCCC2)cc(OC)c1OC,inactive: 2.3%
12,CC(C)Oc1ccc(C(=O)NCC2(N(C)C)CCCCC2)cc1,inactive: -7.82%
13,CN(C)c1cccc(C(=O)NCC2(N(C)C)CCCCC2)c1,inactive: 2.28%
14,COc1cccc(C(=O)NCC2(N3CCOCC3)CCCCC2)c1,inactive: 3.15%
15,CN1CCC[C@H](OC(=O)[C@](O)(c2ccccc2)C2CCCC2)C1,inactive: 2.97%
16,O=C(OC1CN2CCC1CC2)C(CO)(c1ccccc1)c1ccccc1 (centres undefined),inactive: -2.09%
17,CN1CC[C@H](OC(=O)[C@](O)(c2ccccc2)C2CCCC2)C1,inactive: -0.993%
18,CC(C)COc1ccc(C(=O)NCC2(N(C)C)CCCCC2)cc1,inactive: -14.4%
19,C=C(C)C#C[C@@](O)(C(=O)OC1CCN(C)CC1)c1ccccc1,inactive: 1.06%
